Consider 1 substance from patent US20110144018A1, “AGENT FOR PROPHYLAXIS OF REFLEX SYMPATHETIC DYSTROPHY AFTER CEREBRAL APOPLEXY” (priority 2006, published 2011).

In one data set the test system is rats. Kind of data set: Lethal toxicity in rats. It is filed as in vivo. Conditions: 13500 or 7400 units/kg (body weight) to mice or rats; intravenous, intramuscular, hypodermic and oral routes. From the text: (§1) These calcitonins or calcitonin derivatives are exceedingly low toxic.
The test system of another data set is mice. Kind of data set: Lethal toxicity in mice. It is filed as in vivo. Conditions: 13500 or 7400 units/kg (body weight) to mice or rats; intravenous, intramuscular, hypodermic and oral routes.
Excerpt: as §1

Consider “1-butyric acid-7-(L-2-aminobutyric acid)-26-L-aspartic acid-27-L-valine-29-L-alanine-calcitonin [EL]”, for which the Lethal toxicity entry in the data set with rats and in the data set with mice was “no lethal toxicity” throughout.
